System: M. bovis bovinus 8
Assay type: in vivo
Settings: mice, 42 days of treatment

CO[C@H]1/C=C/O[C@@]2(C)Oc3c(C)c(O)c4c(O)c(c(/C=N/N5CCN(C)CC5)c(O)c4c3C2=O)NC(=O)/C(C)=C\C=C\[C@H](C)[C@H](O)[C@@H](C)[C@@H](O)[C@@H](C)[C@H](OC(C)=O)[C@@H]1C [Rifampicin, rifampicin]
Scored sum of area: Dense lymphocytic infiltrate: 2.37

Source: US9750727B2 (priority 2010, dated 2017)
